Target: T1, Flag/GST-tagged recombinant human B-Raf (Homo sapiens, UniProt P15056)
T1 construct: Flag; GST; made in house; host or cells: Sf9 insect cells (B-Raf); E. coli (MEK1-GST)
Test: B-Raf kinase assay (phosphorylation of GST-MEK1, phospho-MEK1 antibody/Europium detection)
Format: biochemical
Conditions: B-Raf IC50 Data for compounds of Formula A

Protein sequences, listed by entry. Tags and fused reporters are not part of them.
UniProt P15056, whole entry: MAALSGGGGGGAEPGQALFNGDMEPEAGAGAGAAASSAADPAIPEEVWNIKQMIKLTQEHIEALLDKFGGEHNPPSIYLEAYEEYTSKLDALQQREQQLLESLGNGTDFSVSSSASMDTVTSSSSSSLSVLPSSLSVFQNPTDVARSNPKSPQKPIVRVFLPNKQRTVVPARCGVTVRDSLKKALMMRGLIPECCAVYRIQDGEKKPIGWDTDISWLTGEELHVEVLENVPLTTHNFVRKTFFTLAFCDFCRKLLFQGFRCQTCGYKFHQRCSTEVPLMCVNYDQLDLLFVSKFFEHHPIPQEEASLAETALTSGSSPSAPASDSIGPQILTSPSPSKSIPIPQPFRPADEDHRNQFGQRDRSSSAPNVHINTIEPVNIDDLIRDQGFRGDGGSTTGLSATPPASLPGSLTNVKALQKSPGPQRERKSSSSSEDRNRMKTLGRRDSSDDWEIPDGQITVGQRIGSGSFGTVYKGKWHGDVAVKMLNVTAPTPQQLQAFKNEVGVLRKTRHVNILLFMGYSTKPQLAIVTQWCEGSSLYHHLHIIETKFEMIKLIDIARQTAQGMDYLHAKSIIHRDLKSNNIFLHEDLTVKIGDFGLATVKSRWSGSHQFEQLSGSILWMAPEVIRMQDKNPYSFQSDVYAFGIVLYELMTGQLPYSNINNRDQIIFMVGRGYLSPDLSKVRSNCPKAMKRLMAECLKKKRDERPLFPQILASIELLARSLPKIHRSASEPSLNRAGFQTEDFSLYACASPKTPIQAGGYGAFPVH

Q: Which IC50 does the source give for CS(=O)(=O)N1C2CCC1CC(c1ccnc3c(-c4cccc5[nH]ncc45)c(-c4ccncc4)nn13)C2 (stereo not shown) [Example 114, 3-(1H-indazol-4-yl)-7-[8-(methylsulfonyl)-8-azabicyclo[3.2.1]oct-3-yl]-2-pyridin-4-ylpyrazolo[1,5-a]pyrimidine] here?
A: 4.9 nM

Reference: patent US20100029657A1, “Bridged, Bicyclic Heterocyclic or Spiro Bicyclic Heterocyclic Derivatives of Pyrazolo[1, 5-A]Pyrimidines, Methods for Preparation and Uses Thereof” (Wyeth, priority 2008, published 2010)
